Laboratory results from patent publication US20090099157A1, “TETRAHYDRO-PYRAZOLO-PYRIDINE THIOETHER MODULATORS OF CATHEPSIN S” (priority 2007, published 2009).

Chains of the proteins cited; added tags and fusions are not shown. Residues count along the entry.
UniProt P25774, 115-331: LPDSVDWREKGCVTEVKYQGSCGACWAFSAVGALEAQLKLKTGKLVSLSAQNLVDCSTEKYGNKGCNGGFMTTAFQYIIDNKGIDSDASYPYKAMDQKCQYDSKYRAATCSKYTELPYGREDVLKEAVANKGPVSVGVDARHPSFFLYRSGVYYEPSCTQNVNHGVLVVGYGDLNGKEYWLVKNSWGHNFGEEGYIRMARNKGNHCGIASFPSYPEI

Molecular target: Recombinant human cathepsin S (CatS) (Homo sapiens, UniProt P25774)
Assay: biochemical

IC50	SMILES
0.49 µM	COCC(=O)N1CCc2c(c(-c3ccc(C(F)(F)F)c(SCCN4CCCC4)c3)nn2CC(O)CN2CCC(NC(=O)CO)CC2)C1 (stereo not shown) [Example 586, 2-Hydroxy-N-{1-[2-hydroxy-3-(5-[(methyloxy)acetyl]-3-{3-[(2-pyrrolidin-1-ylethyl)sulfanyl]-4-(trifluoromethyl)phenyl}-4,5,6,7-tetrahydro-1H-pyrazolo[4,3-c]pyridin-1-yl)propyl]piperidin-4-yl}acetamide]
1.13 µM	NC(=O)C1CCN(CC(O)Cn2nc(-c3ccc(C(F)(F)F)c(SCC(=O)N4CCCC4)c3)c3c2CCNC3)CC1 (stereo not shown) [Example 307, 1-[2-Hydroxy-3-(3-{3-[(2-oxo-2-pyrrolidin-1-ylethyl)sulfanyl]-4-(trifluoromethyl)phenyl}-4,5,6,7-tetrahydro-1H-pyrazolo[4,3-c]pyridin-1-yl)propyl]piperidine-4-carboxamide]
0.055 µM	CS(=O)(=O)N1CCc2c(c(-c3ccc(C(F)(F)F)c(SCCN4CCCCC4)c3)nn2CC(O)CN2CCC(C(=O)N3CCCCC3)CC2)C1 (stereo not shown) [Example 797, 1-[5-(Methylsulfonyl)-3-{3-[(2-piperidin-1-ylethyl)sulfanyl]-4-(trifluoromethyl)phenyl}-4,5,6,7-tetrahydro-1H-pyrazolo[4,3-c]pyridin-1-yl]-3-[4-(piperidin-1-ylcarbonyl)piperidin-1-yl]propan-2-ol]
0.35 µM	CC(=O)NC1CCN(C[C@H](O)Cn2nc(-c3ccc(C(F)(F)F)c(SCCN4CC[C@H](F)C4)c3)c3c2CCN(S(C)(=O)=O)C3)CC1 [Example 606, N-{1-[(2S)-3-{3-[3-({2-[(3S)-3-Fluoropyrrolidin-1-yl]ethyl}sulfanyl)-4-(trifluoromethyl)phenyl]-5-(methylsulfonyl)-4,5,6,7-tetrahydro-1H-pyrazolo[4,3-c]pyridin-1-yl}-2-hydroxypropyl]piperidin-4-yl}acetamide]
1.56 µM	CCN1CCc2c(c(-c3ccc(C(F)(F)F)c(SCC(=O)N4CCCC4)c3)nn2CC(O)CN2CCC(N3CCCC3=O)CC2)C1 (stereo not shown) [Example 281, 1-{1-[3-(5-Ethyl-3-{3-[(2-oxo-2-pyrrolidin-1-ylethyl)sulfanyl]-4-(trifluoromethyl)phenyl}-4,5,6,7-tetrahydro-1H-pyrazolo[4,3-c]pyridin-1-yl)-2-hydroxypropyl]piperidin-4-yl}pyrrolidin-2-one]
0.065 µM	CS(=O)(=O)N1CCc2c(c(-c3ccc(C(F)(F)F)c(SCC(=O)N4CC[C@@H](O)C4)c3)nn2CC(O)CN2CCC(NC(=O)CO)CC2)C1 (stereo partly drawn) [Example 697, 2-Hydroxy-N-[1-(2-hydroxy-3-{3-[3-({2-[(3R)-3-hydroxypyrrolidin-1-yl]-2-oxoethyl}sulfanyl)-4-(trifluoromethyl)phenyl]-5-(methylsulfonyl)-4,5,6,7-tetrahydro-1H-pyrazolo[4,3-c]pyridin-1-yl}propyl)piperidin-4-yl]acetamide]
0.2 µM	CS(=O)(=O)N1CCc2c(c(-c3ccc(C(F)(F)F)c(SCCO)c3)nn2CCCN2CCC(N3CCCC3=O)CC2)C1 [Example 1, 1-[1-(3-{3-[3-(2-Hydroxy-ethylsulfanyl)-4-trifluoromethyl-phenyl]-5-methanesulfonyl-4,5,6,7-tetrahydro-pyrazolo[4,3-c]pyridin-1-yl}-propyl)-piperidin-4-yl]-pyrrolidin-2-one]
0.41 µM	OC(CN1CCN(c2ccccc2)CC1)Cn1nc(-c2ccc(C(F)(F)F)c(SCCN3CCC(F)CC3)c2)c2c1CCNC2 (stereo not shown) [Example 399, 1-{3-[3-{[2-(4-Fluoropiperidin-1-yl)ethyl]sulfanyl}-4-(trifluoromethyl)phenyl]-4,5,6,7-tetrahydro-1H-pyrazolo[4,3-c]pyridin-1-yl}-3-(4-phenylpiperazin-1-yl)propan-2-ol]
3.56 µM	O=C(C1CCN(CC(O)Cn2nc(-c3ccc(C(F)(F)F)c(SCCN4CCCCC4)c3)c3c2CCNC3)CC1)N1CCOCC1 (stereo not shown) [Example 496, 1-[4-(Morpholin-4-ylcarbonyl)piperidin-1-yl]-3-(3-{3-[(2-piperidin-1-ylethyl)sulfanyl]-4-(trifluoromethyl)phenyl}-4,5,6,7-tetrahydro-1H-pyrazolo[4,3-c]pyridin-1-yl)propan-2-ol]
0.23 µM	CS(=O)(=O)N1CCc2c(c(-c3ccc(C(F)(F)F)c(SCCN4CCC(F)(F)C4)c3)nn2CC(O)CN2CCC(O)CC2)C1 (stereo not shown) [Example 514, 1-(3-{3-[3-{[2-(3,3-Difluoropyrrolidin-1-yl)ethyl]sulfanyl}-4-(trifluoromethyl)phenyl]-5-(methylsulfonyl)-4,5,6,7-tetrahydro-1H-pyrazolo[4,3-c]pyridin-1-yl}-2-hydroxypropyl)piperidin-4-ol]
0.92 µM	CS(=O)(=O)N1CCc2c(c(-c3ccc(C(F)(F)F)c(SCCN4CCC(C(N)=O)CC4)c3)nn2C[C@@H](O)CN2CCOCC2)C1 [Example 226, 1-(2-{[5-{1-[(2S)-2-Hydroxy-3-morpholin-4-ylpropyl]-5-(methylsulfonyl)-4,5,6,7-tetrahydro-1H-pyrazolo[4,3-c]pyridin-3-yl}-2-(trifluoromethyl)phenyl]sulfanyl}ethyl)piperidine-4-carboxamide]
2.12 µM	CCN(CC)C(=O)C1CCCN(CCSc2cc(-c3nn(CCCN4CCC(N5CCCC5=O)CC4)c4c3CN(S(C)(=O)=O)CC4)ccc2C(F)(F)F)C1 (stereo not shown) [Example 52, 1-{2-[5-(5-Methanesulfonyl-1-{3-[4-(2-oxo-pyrrolidin-1-yl)-piperidin-1-yl]-propyl}-4,5,6,7-tetrahydro-1H-pyrazolo[4,3-c]pyridin-3-yl)-2-trifluoromethyl-phenylsulfanyl]-ethyl}-piperidine-3-carboxylic acid diethylamide]
0.96 µM	CS(=O)(=O)N1CCc2c(c(-c3ccc(C(F)(F)F)c(SCCNCCN4CCOCC4)c3)nn2CCCN2CCC(N3CCCC3=O)CC2)C1 [Example 48, 1-{1-[3-(5-Methanesulfonyl-3-{3-[2-(2-morpholin-4-yl-ethylamino)-ethylsulfanyl]-4-trifluoromethyl-phenyl}-4,5,6,7-tetrahydro-pyrazolo[4,3-c]pyridin-1-yl)-propyl]-piperidin-4-yl}-pyrrolidin-2-one]
0.01 µM	CS(=O)(=O)N1CCc2c(c(-c3ccc(C(F)(F)F)c(SCCN4CCC(F)CC4)c3)nn2CC(O)CN2CCN(c3ccccc3C#N)CC2)C1 (stereo not shown) [Example 829, 2-[4-(3-{3-[3-{[2-(4-Fluoropiperidin-1-yl)ethyl]sulfanyl}-4-(trifluoromethyl)phenyl]-5-(methylsulfonyl)-4,5,6,7-tetrahydro-1H-pyrazolo[4,3-c]pyridin-1-yl}-2-hydroxypropyl)piperazin-1-yl]benzonitrile]
1.08 µM	C[C@H]1COCCN1CCSc1cc(-c2nn(CCCN3CCCCC3)c3c2CN(S(C)(=O)=O)CC3)ccc1C(F)(F)F [Example 145, 3-[3-({2-[(3S)-3-Methylmorpholin-4-yl]ethyl}sulfanyl)-4-(trifluoromethyl)phenyl]-5-(methylsulfonyl)-1-(3-piperidin-1-ylpropyl)-4,5,6,7-tetrahydro-1H-pyrazolo[4,3-c]pyridine]
1.29 µM	CS(=O)(=O)N1CCc2c(c(-c3ccc(C(F)(F)F)c(SCCN4C=NCCC4)c3)nn2C[C@@H](O)CN2CCCCC2)C1 [Example 215, (2S)-1-{3-[3-{[2-(5,6-Dihydropyrimidin-1(4H)-yl)ethyl]sulfanyl}-4-(trifluoromethyl)phenyl]-5-(methylsulfonyl)-4,5,6,7-tetrahydro-1H-pyrazolo[4,3-c]pyridin-1-yl}-3-piperidin-1-ylpropan-2-ol]
6.02 µM	OC(CN1CCOCC1)Cn1nc(-c2ccc(C(F)(F)F)c(SCCN3CCC(F)(F)C3)c2)c2c1CCNC2 (stereo not shown) [Example 298, 1-{3-[3-{[2-(3,3-Difluoropyrrolidin-1-yl)ethyl]sulfanyl}-4-(trifluoromethyl)phenyl]-4,5,6,7-tetrahydro-1H-pyrazolo[4,3-c]pyridin-1-yl}-3-morpholin-4-ylpropan-2-ol]
0.78 µM	C[C@H]1COCCN1CC(O)Cn1nc(-c2ccc(C(F)(F)F)c(SCCN3CCCC3)c2)c2c1CCN(S(C)(=O)=O)C2 (stereo partly drawn) [Example 351, 1-[(3S)-3-Methylmorpholin-4-yl]-3-[5-(methylsulfonyl)-3-{3-[(2-pyrrolidin-1-ylethyl)sulfanyl]-4-(trifluoromethyl)phenyl}-4,5,6,7-tetrahydro-1H-pyrazolo[4,3-c]pyridin-1-yl]propan-2-ol]
0.34 µM	CS(=O)(=O)N1CCc2c(c(-c3ccc(C(F)(F)F)c(SCCN4CCCC(CO)C4)c3)nn2CC(O)CN2CCC(N3CCOCC3)CC2)C1 (stereo not shown) [Example 819, 1-{3-[3-({2-[3-(Hydroxymethyl)piperidin-1-yl]ethyl}sulfanyl)-4-(trifluoromethyl)phenyl]-5-(methylsulfonyl)-4,5,6,7-tetrahydro-1H-pyrazolo[4,3-c]pyridin-1-yl}-3-(4-morpholin-4-ylpiperidin-1-yl)propan-2-ol]
0.14 µM	Cn1c(=O)n(C2CCN(CC(O)Cn3nc(-c4ccc(C(F)(F)F)c(SCCN5CCCCC5)c4)c4c3CCNC4)CC2)c2cc(Cl)ccc21 (stereo not shown) [Example 762, 5-Chloro-3-{1-[2-hydroxy-3-(3-{3-[(2-piperidin-1-ylethyl)sulfanyl]-4-(trifluoromethyl)phenyl}-4,5,6,7-tetrahydro-1H-pyrazolo[4,3-c]pyridin-1-yl)propyl]piperidin-4-yl}-1-methyl-1,3-dihydro-2H-benzimidazol-2-one]
0.085 µM	CS(=O)(=O)N1CCc2c(c(-c3ccc(C(F)(F)F)c(SCCN4CCCC4)c3)nn2CC(O)CN2CCC(N3CCCC3=O)CC2)C1 (stereo not shown) [Example 639, 1-(1-{2-Hydroxy-3-[5-(methylsulfonyl)-3-{3-[(2-pyrrolidin-1-ylethyl)sulfanyl]-4-(trifluoromethyl)phenyl}-4,5,6,7-tetrahydro-1H-pyrazolo[4,3-c]pyridin-1-yl]propyl}piperidin-4-yl)pyrrolidin-2-one]
0.01 µM	CN(C)c1ccc2c(n1)n(C1CCN(CC(O)Cn3nc(-c4ccc(C(F)(F)F)c(SCC(=O)N5CC[C@@H](O)C5)c4)c4c3CCN(S(C)(=O)=O)C4)CC1)c(=O)n2C (stereo partly drawn) [Example 893, 5-(Dimethylamino)-3-[1-(2-hydroxy-3-{3-[3-({2-[(3R)-3-hydroxypyrrolidin-1-yl]-2-oxoethyl}sulfanyl)-4-(trifluoromethyl)phenyl]-5-(methylsulfonyl)-4,5,6,7-tetrahydro-1H-pyrazolo[4,3-c]pyridin-1-yl}propyl)piperidin-4-yl]-1-methyl-1,3-dihydro-2H-imidazo[4,5-b]pyridin-2-one]
